Values quoted from earlier work as cited in patent publication US20130079342A1, “HETEROCYCLIC COMPOUNDS AND THEIR USES” (priority 2011, published 2013).

Protein sequences, listed by entry. Tags and fused reporters are not part of them.
UniProt P42338, whole entry, species assumed: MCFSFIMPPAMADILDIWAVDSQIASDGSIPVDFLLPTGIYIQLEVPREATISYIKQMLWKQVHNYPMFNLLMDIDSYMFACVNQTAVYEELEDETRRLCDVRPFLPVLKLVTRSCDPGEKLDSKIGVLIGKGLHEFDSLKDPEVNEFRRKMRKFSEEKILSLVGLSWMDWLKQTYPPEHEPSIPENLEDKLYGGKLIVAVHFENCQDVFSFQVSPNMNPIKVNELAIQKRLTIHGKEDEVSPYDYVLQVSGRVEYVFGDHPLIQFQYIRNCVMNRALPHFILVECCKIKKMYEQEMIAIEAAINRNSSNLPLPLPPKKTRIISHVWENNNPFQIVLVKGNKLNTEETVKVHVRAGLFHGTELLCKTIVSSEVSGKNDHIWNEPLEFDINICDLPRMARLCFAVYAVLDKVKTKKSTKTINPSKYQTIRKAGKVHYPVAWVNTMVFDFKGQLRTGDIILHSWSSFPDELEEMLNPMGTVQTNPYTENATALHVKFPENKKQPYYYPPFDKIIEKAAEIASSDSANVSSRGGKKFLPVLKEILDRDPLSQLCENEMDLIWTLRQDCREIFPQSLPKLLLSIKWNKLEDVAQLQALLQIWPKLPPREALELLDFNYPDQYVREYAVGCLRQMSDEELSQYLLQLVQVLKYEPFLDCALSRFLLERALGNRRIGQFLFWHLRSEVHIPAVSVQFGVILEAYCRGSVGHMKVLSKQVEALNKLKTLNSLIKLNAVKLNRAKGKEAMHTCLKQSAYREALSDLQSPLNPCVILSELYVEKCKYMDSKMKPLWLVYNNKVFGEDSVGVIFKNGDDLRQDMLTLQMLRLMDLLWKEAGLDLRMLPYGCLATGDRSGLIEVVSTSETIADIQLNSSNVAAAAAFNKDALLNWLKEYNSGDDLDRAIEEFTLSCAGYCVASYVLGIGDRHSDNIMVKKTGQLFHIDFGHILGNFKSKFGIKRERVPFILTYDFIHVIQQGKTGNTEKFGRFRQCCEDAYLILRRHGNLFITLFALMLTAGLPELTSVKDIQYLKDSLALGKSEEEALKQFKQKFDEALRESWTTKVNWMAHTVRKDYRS

Target: p110β (Homo sapiens, UniProt P42338)
Details: quantity not given; read-out: potency on beta

For `Cc1cc(C(C)Nc2ccccc2)c2nc(N3CCOCC3)cc(=O)n2c1` (stereo not shown) [TGX-221], the IC50 is listed as 7 nM.
